Reference: patent US20220193029A1, “BRYOSTATIN COMPOUNDS FOR ENHANCEMENT OF IMMUNOTHERAPY” (priority 2019, published 2022)

Experiments:
[1] = system: CD22 surface expression in NALM6 cells; test: CD22 surface expression assay by flow cytometry; assay type: cell-based, human; conditions: At 1 nM, relative to DMSO control
PKCδ-GFP fusion protein = test: PKCδ-GFP translocation assay in living CHO-k1 cells (confocal microscopy); assay type: cell-based, Chinese hamster

CCCC=CC=CC(=O)O[C@H]1/C(=C/C(=O)OC)C[C@H]2C[C@H]([C@@H](C)O)OC(=O)C[C@H](O)C[C@@H]3C[C@H](OC(C)=O)C(C)(C)[C@](O)(C[C@@H]4C[C@H](OC(=O)Nc5ccccc5)C[C@H](/C=C/C(C)(C)[C@]1(O)O2)O4)O3
Fold increase CD22 expression [1]: 1.68 fold
time required for translocation (PKCδ-GFP fusion protein; 200 nM): about 15 minutes
concentration* (minimum effective concentration required to induce translocation of PKC-GFP to the membrane) (PKCδ-GFP fusion protein; CHO-k1 cells): 200 nM
% Translocation (PKCδ-GFP fusion protein; maximum translocation of PKCδ-GFP to the plasma membrane at the concentration printed in the same cell, CHO-k1 cells, SUW212: only brief translocation observed): 75%
PKC translocation behavior / dynamics of PKC activation (PKCδ-GFP fusion protein; time course, FIG. 6 panels C-D): delayed activation patterns
